The target in the experiment is Interleukin enhancer-binding factor 3 (Homo sapiens, UniProt Q12906). Particulars: dose <= 1.0 µM.

Chains of the proteins cited; added tags and fusions are not shown.
UniProt Q12906, whole entry: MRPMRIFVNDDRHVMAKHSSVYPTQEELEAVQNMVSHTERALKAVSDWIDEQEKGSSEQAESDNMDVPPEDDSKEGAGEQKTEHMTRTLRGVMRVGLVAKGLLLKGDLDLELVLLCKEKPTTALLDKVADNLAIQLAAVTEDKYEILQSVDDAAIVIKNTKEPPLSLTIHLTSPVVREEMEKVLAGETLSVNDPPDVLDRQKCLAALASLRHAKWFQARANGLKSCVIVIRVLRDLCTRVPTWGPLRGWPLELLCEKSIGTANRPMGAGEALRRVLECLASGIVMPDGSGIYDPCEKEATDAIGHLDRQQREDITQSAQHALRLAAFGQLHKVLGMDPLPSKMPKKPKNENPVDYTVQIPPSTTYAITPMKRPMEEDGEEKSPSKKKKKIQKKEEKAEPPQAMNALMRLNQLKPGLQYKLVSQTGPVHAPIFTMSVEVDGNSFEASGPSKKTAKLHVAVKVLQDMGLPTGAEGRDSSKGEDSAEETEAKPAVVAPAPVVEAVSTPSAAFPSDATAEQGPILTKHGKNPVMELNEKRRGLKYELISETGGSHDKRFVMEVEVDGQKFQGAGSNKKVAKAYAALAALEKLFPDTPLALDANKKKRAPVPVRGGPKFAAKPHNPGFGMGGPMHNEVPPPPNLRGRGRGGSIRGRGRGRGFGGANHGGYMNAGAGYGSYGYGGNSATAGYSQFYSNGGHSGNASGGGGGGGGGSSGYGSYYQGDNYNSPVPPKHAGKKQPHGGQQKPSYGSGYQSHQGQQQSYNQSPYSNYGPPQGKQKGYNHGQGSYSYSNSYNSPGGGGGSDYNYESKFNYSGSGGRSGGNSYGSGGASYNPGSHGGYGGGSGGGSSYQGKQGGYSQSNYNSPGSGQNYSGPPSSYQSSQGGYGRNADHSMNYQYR

Structures are written as SMILES.

In the case of `COCC[n+]1c2c(n(Cc3cnccn3)c1C)C(=O)c1ccccc1C2=O.[Br-]` [SEPANTRONIUM BROMIDE], the Kdiss came to 0.063 s⁻¹.

For the compound `Cn1c[n+](C)c2c1C(=O)c1cc3ccccc3cc1C2=O`, the Kdiss was determined as 0.059 s⁻¹.
